What was measured:
[1] = 20° C., background statement; cited from earlier work
[2] = Solubility of active compounds in various solvent systems

Substance: calcium gluconate
- Solubility in water [1]: 0.4 g/100 mL
- Solubility ([2]; 10% urea in water, 20 °C): 0.4 g/100 mL
- Solubility ([2]; 10% urea in water, 37 °C): 1.0 g/100 mL
- Solubility ([2]; 10% urea in water, 60 °C): 1.4 g/100 mL
- Solubility ([2]; 10% urea in water, 90 °C): 2.2 g/100 mL
- Solubility ([2]; 45% DMSO in water, 20 °C): 0.2 g/100 mL
- Solubility ([2]; 45% DMSO in water, 37 °C): 0.4 g/100 mL
- Solubility ([2]; 45% DMSO in water, 60 °C): 1.0 g/100 mL
- Solubility ([2]; 45% DMSO in water, 90 °C): 1.3 g/100 mL
- Solubility ([2]; 100% DMSO, 20 °C): 0.1 g/100 mL
- Solubility ([2]; 100% DMSO, 37 °C): 0.3 g/100 mL
- Solubility ([2]; 100% DMSO, 60 °C): 0.6 g/100 mL
- Solubility ([2]; 100% DMSO, 90 °C): 1.1 g/100 mL
- Solubility ([2]; Water, 20 °C): 0.4 g/100 mL
- Solubility ([2]; Water, 37 °C): 1.0 g/100 mL
- Solubility ([2]; Water, 60 °C): 2.4 g/100 mL
- Solubility ([2]; Water, 90 °C): 5.6 g/100 mL

From patent publication US20050266098A1, “Composition for treatment of a hydrofluoric acid burn” (priority 2004, published 2005)
